Assay results taken from patent US12275803B2, “Functionalization of biopolymers with growth factor-binding peptides” (Universiteit Twente, priority 2016, dated 2025).

Tested on: C2C12 cells
Assay: ALP quantification and staining
Format: cell-based
Details: 200 ng/mL soluble hBMP-2 at each medium refresh; 7 days; versus films pre-incubated with hBMP-2
Protocol: For cell experiments, the sterile films were washed three times with PBS and incubated with concentrated hBMP-2 in PBS for one hour with gentle agitation. Subsequently, the films were extensively washed with TBST (0.5%) and PBS to remove any traces of the washing buffer prior to cell seeding.
C2C12 Luc express luciferase under the control of a ID1 promoter—a BMP-2 target gene (Zilberberg et al., 2007, BMC Cell Biol. 8(41). DOI: 10.1186/1471-2121-8-41).
For the analysis of the amount of ALP produced, C2C12 cells were seeded on films at 20,000 cells/cm2 and allowed to attach overnight. Next day the amount of FBS was reduced to 2% and the cells cultured during 7 days with medium refreshes every 3 days. After 7 days the cells were lysed and the amount of ALP quantified using the CDP-star Universal Alkaline Phosphatase Detection Kit (Sigma-Aldrich) according to the manufacturer's instructions. The values for ALP were normalized to the amount of DNA, which was quantified with the CyQUANT cell proliferation assay (Invitrogen). Staining against ALP was performed with Fast Violet B Salt (Sigma-Aldrich) dye.

B1: soluble hBMP-2: soluble human BMP-2 added to the culture medium (protein)
chain: QAKHKQRKRLKSSCKRHPLYVDFSDVGWNDWIVAPPGYHAFYCHGECPFPLADHLNSTNHAIVQTLVNSVNSKIPKACCVPTELSAISMLYLDENEKVVLKNYQDMVVEGCGCR
ALP response to soluble hBMP-2: even more pronounced response
